Measured values published in patent publication US11147875B2, “Compositions, combinations and related methods for photoimmunotherapy” (priority 2015, dated 2021).
Like-named read-outs stand apart in the source and are kept apart here. Marks after values point to notes of the source that are not given here.

Assays:
BxPC3 cells [1] = test: Cell staining with dual CTX-IRDye 700DX conjugates, flow cytometry; type: cell-based; conditions: excitation 488 nm, emission filter (530 nm/30 nm)
BxPC3 cells [2] = test: PIT killing activity of dual conjugates, normalized to cetuximab-IRDye 700DX; type: cell-based; conditions: solo conjugates without IRDye 700DX
Description: BxPC3 cells (#CRL-1687, ATCC, Manassas Va., USA) were seeded in a 96-well, white-walled, clear bottom, tissue culture (TC)-treated polystyrene plate at a concentration of 5,000 cells/well in RPMI-1640 media supplemented with 10% FBS and 1% Penicillin/Streptomycin (complete culture media) and incubated overnight at 37° C. The following day complete culture media was replaced with fresh complete culture media alone or media containing either 500 ng/ml or 100 ng/mL of test agent as indicated, and the plate was incubated for one hour at 37° C.
The cells were then illuminated with a 690 nm laser at a light dose of either 16 J/Cm^2 or 32 J/cm^2 or protected from light (“no light”).
The effect of the different treatment regimens on cell death was measured using the fluorescent stain, CellTox Green (Catalog No: G8731, Promega, Madison, Wis., USA) substantially as described in Example 6.

BxPC3 cells [3] = test: PIT with cetuximab conjugates with or without donkey anti-human-IRDye 700DX; type: cell-based; conditions: 250 ng/mL 1st incubation
Description: The cells were then washed one time with complete culture media, incubated for 30 minutes at 4° C. with or without 2 μg/mL Donkey anti-Human IRDye 700DX conjugated (DxHu IR700) secondary antibody diluted with complete culture media, and then washed one time with complete culture media. The cells were then illuminated with a 690 nm laser at a light dose of 16 J/cm^2 or protected from light (“no light”).
The effect of different treatment regimens on cell death was measured using the fluorescent stain, CellTox Green (Cat No: G8731, Promega, Madison, Wis.). […] After the light treatment, all cells were incubated with 1× CellTox Green reagent diluted in complete culture media. […] The CellTox Green fluorescence signal was measured at 24 hours after light treatment using a fluorescence plate reader. The cells were then lysed with detergent, incubated at 37° C. for 30 minutes, and the CellTox Green fluorescence signal was measured again post lysis. The percent dead cells was calculated by taking the ratio between background (lx CellTox Green in complete culture media without cells) subtracted CellTox Green signal per well prior to and post lysis and multiplying the ratio by 100.

BxPC3 cells [4] = test: PIT with biotinylated cetuximab pre-complexed with monomeric streptavidin-IRDye 700DX; type: cell-based
Description: The cells were then washed one time with complete culture media. The cells were either protected from light (light dose 0 J/cm^2) or were illuminated with a 690 nm laser with different light dosimetries (2 J/cm^2, 8 J/cm^2, 32 J/cm^2 or 64 J/cm^2). Cell death was evaluated as described in Example 6 using CellTox Green.
The cells were then washed one time. […] The cells were then washed one time with complete culture media.
The effect of indirect killing of cells using monomeric streptavidin-IRDye 700DX that had been exposed to different types of light was also evaluated. Thirty microliters of monomeric streptavidin-IRDye 700DX conjugate (DAR 1.35) was added per clear HPLC vial at a monomeric streptavidin conjugate concentration of 865 μg/mL. The following conditions were tested: (1) the monomeric streptavidin-IRDye 700DX conjugate was placed in a clear glass HPLC tube wrapped in aluminum foil to protect from light exposure under a halogen lamp at 2500 lux for 24 hrs (“no light”; to control for thermal heating effects); (2) the monomeric streptavidin-IRDye 700DX conjugate was placed in a clear glass HPLC tube under a halogen lamp at 2500 lux for 24 hrs (“white light”); (3) the monomeric streptavidin-IRDye 700DX conjugate was placed in a clear glass HPLC tube and exposed to green LED lamp at 2500 lux for 24 hrs (“green light”).

BxPC3 cells [5] = test: Fluorescence of cells stained with cetuximab conjugates with or without secondary antibody, flow cytometry; type: cell-based; conditions: 250 ng/mL 1st incubation, 2nd incubation 2 μg/mL Don × Hu IRDye 700DX
[6] = in vivo, cited from earlier work
BxPC3 cells [7] = test: PIT with cetuximab and donkey anti-human-IRDye 700DX secondary antibody; type: cell-based; conditions: sequentially labeled with donkey anti-human IRDye 700DX secondary antibody
Description: The cells were then washed one time with complete culture media, incubated for 30 minutes at 4° C. with or without IRDye 700DX conjugated (DxHu IRDye 700DX) secondary antibody diluted with complete culture media, and then washed one time with complete culture media. […] To induce cell killing, the cells were then illuminated with a 690 nm laser at a light dose of 16 J/cm^2 or protected from light (“no light”). Cell death was evaluated as described in Example 6 using CellTox Green.

Head and Neck cancer = conditions: cited from earlier work
[8] = 2nd incubation 2 μg/mL Don × Hu IRDye 700DX

## CTX700-Alexa Fluor488: cetuximab-IRDye 700DX further conjugated with Alexa Fluor 488
BxPC3 cells [1]
  Fluorescence Intensity (AU): 515* AU

## CTX-IRDye 800: cetuximab-IRDye 800 solo conjugate without IRDye 700DX
BxPC3 cells [2]
  PIT cell killing: not able to induced PIT cell killing

## Cetuximab-IRDye 680RD: cetuximab directly conjugated to IRDye 680RD
BxPC3 cells [3]; [8]
  % Dead cells 690 nm Light (16 J/cm^2): 92.51% +/− 0.54%
  % Dead cells No Light: 10.30% +/− 0.73%
BxPC3 cells [3]; no 2nd incubation
  % Dead cells 690 nm Light (16 J/cm^2): 7.03% +/− 0.18%
  % Dead cells No Light: 12.18% +/− 3.16%

## biotinylated cetuximab pre-complexed with monomeric streptavidin-IRDye 700DX: non-covalent complex of biotinylated cetuximab and monomeric streptavidin-IRDye 700DX
BxPC3 cells [4]; 1 μg/mL, 0, 2, 8, 32, 64 J/cm^2
  PIT killing activity: light dose dependent
BxPC3 cells [4]; cells pre-exposed to 100 μg/mL unconjugated cetuximab
  PIT killing: No light-dependent PIT killing
BxPC3 cells [4]; mSA-IRDye 700DX pre-exposed to green light, 2500 lux, 24 hours
  PIT killing: some decrease in PIT killing
BxPC3 cells [4]; mSA-IRDye 700DX pre-exposed to white light, 2500 lux, 24 hours
  PIT killing: no light-dependent PIT killing
BxPC3 cells [4]; mSA-IRDye 700DX protected from light with aluminum foil
  PIT killing: expected light-dependent killing
BxPC3 cells [4]; pre-complexed with 10× molar excess of unconjugated monomeric streptavidin
  PIT killing: no light-dependent PIT killing

## cetuximab IRDye 700DX (2.5) + sulfo Cy7: cetuximab directly conjugated with IR700 and sulfonated Cy7
BxPC3 cells [3]; [8]
  % Dead cells 690 nm Light (16 J/cm^2): 94.09% +/− 1.29%
  % Dead cells No Light: 8.88% +/− 1.76%
BxPC3 cells [3]; no 2nd incubation
  % Dead cells 690 nm Light (16 J/cm^2): 12.12% +/− 0.79%
  % Dead cells No Light: 7.63% +/− 1.35%

## cetuximab-Alexafluor488: cetuximab-Alexafluor488 solo conjugate without IRDye 700DX
BxPC3 cells [2]
  PIT cell killing: not able to induced PIT cell killing

## cetuximab-IRDye 700DX+IRDye 680RD: cetuximab directly conjugated with IRDye 700DX and IRDye 680RD
BxPC3 cells [3]; [8]
  % Dead cells 690 nm Light (16 J/cm^2): 96.66% +/− 2.49%
  % Dead cells No Light: 7.00% +/− 1.18%
BxPC3 cells [3]; no 2nd incubation
  % Dead cells 690 nm Light (16 J/cm^2): 38.00% +/− 2.11%
  % Dead cells No Light: 5.92% +/− 1.08%

## cetuximab-sulfo Cy7: cetuximab directly conjugated with sulfonated Cy7
BxPC3 cells [5]
  Fluorescence: 39,341
BxPC3 cells [3]; [8]
  % Dead cells 690 nm Light (16 J/cm^2): 72.16% +/− 1.86%
  % Dead cells No Light: 7.33% +/− 0.39%
BxPC3 cells [3]; no 2nd incubation
  % Dead cells 690 nm Light (16 J/cm^2): 4.36% +/− 0.36%
  % Dead cells No Light: 6.47% +/− 0.53%

## cetuximab: anti-EGFR antibody cetuximab (Erbitux), not conjugated
[6]; 50 mg/m2
  Erbitux Mean AUC0-inf: 858 +/− 271
[6]; 100 mg/m2
  Erbitux Mean AUC0-inf: 3,038 +/− 655
[6]; 250 mg/m2
  AUC0-∞: ~11,812 μg/mL*h
  Erbitux Mean AUC0-inf: 11,812 +/− 3,656
[6]; 400 mg/m2
  Erbitux Mean AUC0-inf: 24,620 +/− 9,555
  average systemic exposure (AUC0-inf): about 24,620 μg*h/mL
[6]; 500 mg/m2
  Erbitux Mean AUC0-inf: 24,740 +/− 8,259
[6]
  systemic exposure of a weekly dose: 11,812 μg*h/mL
BxPC3 cells [5]
  Fluorescence: 55,134
BxPC3 cells [7]; 690 nm, 16 J/cm^2
  cell death: ~90%
BxPC3 cells [7]; no light
  cell death: did not result in cell death
BxPC3 cells [3]; [8]
  % Dead cells 690 nm Light (16 J/cm^2): 91.76% +/− 4.2%
  % Dead cells No Light: 7.66% +/− 0.50%
BxPC3 cells [3]; no 2nd incubation
  % Dead cells 690 nm Light (16 J/cm^2): 5.89% +/− 0.49%
  % Dead cells No Light: 7.17% +/− 0.86%
Head and Neck cancer; in vivo
  increase of ORR in combination with chemotherapy compared to chemotherapy alone: about 16%
Head and Neck cancer; monotherapy, multiple doses
  ORR: ≤ 15%
